{"sequences": {"note": "The chains behind the UniProt entries cited, without tags or fusion partners. Where a name states a change or a piece, a line headed by the entry shows the natural chain unless it says otherwise.", "UniProt O14920": "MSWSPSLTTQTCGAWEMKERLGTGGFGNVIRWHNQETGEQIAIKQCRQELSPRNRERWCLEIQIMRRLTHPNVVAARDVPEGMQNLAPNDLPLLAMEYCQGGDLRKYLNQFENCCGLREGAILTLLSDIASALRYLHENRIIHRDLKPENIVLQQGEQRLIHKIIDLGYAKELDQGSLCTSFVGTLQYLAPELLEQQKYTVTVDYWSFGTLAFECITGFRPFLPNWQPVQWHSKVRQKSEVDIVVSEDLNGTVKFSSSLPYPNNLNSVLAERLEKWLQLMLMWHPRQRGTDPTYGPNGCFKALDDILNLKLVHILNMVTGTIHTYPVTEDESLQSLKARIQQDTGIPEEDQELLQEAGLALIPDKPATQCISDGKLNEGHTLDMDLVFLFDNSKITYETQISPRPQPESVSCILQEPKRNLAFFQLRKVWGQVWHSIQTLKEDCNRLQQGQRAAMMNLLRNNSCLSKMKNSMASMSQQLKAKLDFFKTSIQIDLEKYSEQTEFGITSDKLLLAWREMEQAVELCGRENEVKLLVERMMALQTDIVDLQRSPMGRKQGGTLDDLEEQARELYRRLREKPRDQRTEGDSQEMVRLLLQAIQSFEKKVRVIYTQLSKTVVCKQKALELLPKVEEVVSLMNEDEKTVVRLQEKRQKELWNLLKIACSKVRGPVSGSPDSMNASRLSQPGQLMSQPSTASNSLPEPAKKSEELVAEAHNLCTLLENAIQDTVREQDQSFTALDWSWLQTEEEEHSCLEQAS", "UniProt O15111": "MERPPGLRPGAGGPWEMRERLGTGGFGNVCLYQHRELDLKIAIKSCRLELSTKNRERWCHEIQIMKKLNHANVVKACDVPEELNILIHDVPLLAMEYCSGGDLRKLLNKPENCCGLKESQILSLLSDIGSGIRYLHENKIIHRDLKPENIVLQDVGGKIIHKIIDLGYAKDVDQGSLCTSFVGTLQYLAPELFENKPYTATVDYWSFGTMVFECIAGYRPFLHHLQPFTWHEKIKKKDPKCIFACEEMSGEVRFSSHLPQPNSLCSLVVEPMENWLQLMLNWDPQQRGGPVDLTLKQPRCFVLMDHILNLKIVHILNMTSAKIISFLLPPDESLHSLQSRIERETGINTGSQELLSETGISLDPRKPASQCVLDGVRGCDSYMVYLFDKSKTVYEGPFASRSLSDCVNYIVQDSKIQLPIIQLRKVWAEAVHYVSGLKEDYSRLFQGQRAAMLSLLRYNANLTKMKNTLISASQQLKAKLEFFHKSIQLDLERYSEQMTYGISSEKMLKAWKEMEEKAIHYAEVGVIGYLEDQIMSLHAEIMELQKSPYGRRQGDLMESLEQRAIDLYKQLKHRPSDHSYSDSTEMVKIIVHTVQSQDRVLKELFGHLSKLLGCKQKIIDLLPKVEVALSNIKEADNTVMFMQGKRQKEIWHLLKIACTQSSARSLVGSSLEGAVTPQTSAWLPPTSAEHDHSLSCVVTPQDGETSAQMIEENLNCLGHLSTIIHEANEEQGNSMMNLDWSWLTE"}, "source": "patent US7348336B2", "about": "(Sanofi-Aventis Deutschland GmbH, priority 2000, dated 2008)", "biological_target": "T1, IκBα-kinase complex (Homo sapiens, UniProt O14920+O15111)", "T1 construct": "endogenous in cells; host or cells: HeLa S3 cell extract, S100 fraction; ammonium sulfate precipitation and Superose-6 size exclusion", "assay": "IkB-Kinase ELISA;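 further: substrate phosphopeptide captured on Protein-A plates, detected with Streptavidin-HRP and TMB absorbance at 450 nm, activity read from a synthetic phosphopeptide standard curve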", "assay_type": "biochemical", "details": "activated IκBα kinase complex from HeLa S3 cell extracts", "note": "pIC50: −log10 of the molar value."}
{"compound": "CC(=O)Nc1cc(Cl)cc2c1[nH]c1cnccc12", "note": "[Example 16, 9-amino-7-chloro-β-carboline trifuoroacetate]", "values": [{"measurement": "pIC50", "result": 6.52}]}
